Laboratory results published in ChEMBL document CHEMBL4419164, “Methods and compositions for inhibiting cnksr1” (2018).

Experiments:
Homo sapiens [1] = organism: Homo sapiens; assay: Selectivity index, ratio of binding affinity to AKT PH-domain (unknown origin) by SPR spectroscopy to binding affinity to CNKSR1 PH-domain (unknown origin) by SPR spectroscopy
Homo sapiens [2] = organism: Homo sapiens; assay: Selectivity index, ratio of binding affinity to PDPK1 PH-domain (unknown origin) by SPR spectroscopy to binding affinity to CNKSR1 PH-domain (unknown origin) by SPR spectroscopy
Homo sapiens [3] = organism: Homo sapiens; assay: Selectivity index, ratio of binding affinity to TIAM1 PH-domain (unknown origin) by SPR spectroscopy to binding affinity to CNKSR1 PH-domain (unknown origin) by SPR spectroscopy

Ratio (Homo sapiens [1]): 50 to 100
Ratio (Homo sapiens [2]): 50 to 100
Ratio (Homo sapiens [3]): 50 to 100
SMILES: CCOC(=O)Cc1nn(Cc2nc(-c3ccc(C)cc3)cs2)c(=O)c2ccccc12
